Laboratory results from ChEMBL document CHEMBL1138006, “Identification of 2,3-diaryl-pyrazolo[1,5-b]pyridazines as potent and selective cyclooxygenase-2 inhibitors” (Bioorg Med Chem Lett, 2004).

Protein sequences, listed by entry. Tags and fused reporters are not part of them.
UniProt P23219, whole entry: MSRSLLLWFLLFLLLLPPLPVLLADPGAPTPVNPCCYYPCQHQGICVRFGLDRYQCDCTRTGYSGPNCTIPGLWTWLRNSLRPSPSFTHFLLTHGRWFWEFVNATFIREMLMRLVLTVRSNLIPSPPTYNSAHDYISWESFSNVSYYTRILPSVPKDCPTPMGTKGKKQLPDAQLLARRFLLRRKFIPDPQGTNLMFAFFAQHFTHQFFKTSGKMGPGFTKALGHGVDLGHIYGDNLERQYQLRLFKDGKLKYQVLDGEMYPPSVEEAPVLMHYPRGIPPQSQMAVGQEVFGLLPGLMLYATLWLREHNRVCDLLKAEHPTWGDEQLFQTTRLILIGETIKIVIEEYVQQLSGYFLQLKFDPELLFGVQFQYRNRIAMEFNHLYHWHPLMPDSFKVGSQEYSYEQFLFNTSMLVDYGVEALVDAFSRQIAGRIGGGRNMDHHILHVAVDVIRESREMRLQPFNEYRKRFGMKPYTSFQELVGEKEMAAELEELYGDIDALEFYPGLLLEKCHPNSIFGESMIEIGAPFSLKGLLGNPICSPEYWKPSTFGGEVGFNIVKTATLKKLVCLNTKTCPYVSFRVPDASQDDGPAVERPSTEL

Target: Prostaglandin G/H synthase 1 (Homo sapiens, UniProt P23219)
Type: cell-based, COS

For Cc1onc(-c2ccccc2)c1-c1ccc(S(N)(=O)=O)cc1 [VALDECOXIB], the IC50 was > 100 µM.
